{
  "source": "paper PMC3539664",
  "about": "“Convergent synthesis and evaluation of ^18F-labeled azulenic COX2 probes for cancer imaging” (Frontiers in Oncology, 2013)",
  "molecular_target": "T1, ovine COX2 (Ovis aries, UniProt P79208)",
  "T1 construct": "purchased Cayman",
  "T1 sequence (P79208 17-603)": "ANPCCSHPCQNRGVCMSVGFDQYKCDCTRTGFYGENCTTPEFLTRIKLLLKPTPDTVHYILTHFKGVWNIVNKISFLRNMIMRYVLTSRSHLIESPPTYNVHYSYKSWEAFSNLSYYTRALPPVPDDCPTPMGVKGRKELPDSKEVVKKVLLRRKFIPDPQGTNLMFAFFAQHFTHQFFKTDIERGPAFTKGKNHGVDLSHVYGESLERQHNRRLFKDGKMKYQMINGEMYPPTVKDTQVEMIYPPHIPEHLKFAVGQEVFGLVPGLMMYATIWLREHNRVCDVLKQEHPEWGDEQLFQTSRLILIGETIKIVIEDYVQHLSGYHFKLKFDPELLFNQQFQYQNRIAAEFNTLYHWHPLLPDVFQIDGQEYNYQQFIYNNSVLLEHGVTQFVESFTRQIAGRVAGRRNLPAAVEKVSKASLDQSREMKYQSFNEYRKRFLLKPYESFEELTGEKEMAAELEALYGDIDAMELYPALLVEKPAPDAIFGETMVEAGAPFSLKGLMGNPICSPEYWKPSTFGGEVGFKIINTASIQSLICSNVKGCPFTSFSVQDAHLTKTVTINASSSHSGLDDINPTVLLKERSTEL",
  "assay": "Colorimetric COX inhibitor screening assay (Cayman kit), IC50 assay",
  "format": "biochemical",
  "conditions": "10 duplicate concentrations (Figure 2)",
  "data": [
    {"compound": "CS(=O)(=O)c1ccc(-c2cc(Br)sc2-c2ccc(F)cc2)cc1", "note": "[DuP697]", "values": [
      {"measurement": "Hill slope of the inhibition curve", "result": -1.0}
    ]}
  ]
}
